Results on one compound are retold here after patent publication US10974081B2, “Treatment and prevention of sleep disorders” (Purdue Pharma L.P., priority 2016, dated 2021).

Protein sequences, listed by entry. Tags and fused reporters are not part of them. Lines headed by an entry give the natural chain unless they say otherwise; changes in a name come on top.
UniProt P41146: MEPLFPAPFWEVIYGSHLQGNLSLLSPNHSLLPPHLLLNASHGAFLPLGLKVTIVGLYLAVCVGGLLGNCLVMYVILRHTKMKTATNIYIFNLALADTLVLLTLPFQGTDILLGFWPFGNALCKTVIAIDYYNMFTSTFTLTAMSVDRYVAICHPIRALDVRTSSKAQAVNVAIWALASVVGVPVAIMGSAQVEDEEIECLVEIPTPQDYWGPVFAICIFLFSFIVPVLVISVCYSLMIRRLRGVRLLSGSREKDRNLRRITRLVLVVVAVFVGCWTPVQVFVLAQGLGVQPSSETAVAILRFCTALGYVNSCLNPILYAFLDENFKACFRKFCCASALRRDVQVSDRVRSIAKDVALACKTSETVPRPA

Each structure is given as a SMILES string.

Experiment [1] concerns the target T1, ORL-1 receptor (Homo sapiens, UniProt P41146). The experiment can be described thus: Radioligand dose-displacement binding assay, ORL-1. Particulars: read-out: Ki ORL-1 [Average ± SD]; determined according to the procedures of U.S. Pat. No. 8,476,271.
The target in experiment [2] is T1, ORL-1 receptor. In words: Functional [^35S]GTPγS binding assay, ORL-1. The experiment is classed as biochemical.

On to `CNC(=O)Cn1c(=O)n(C2CCN([C@@H]3Cc4cccc5cccc3c45)CC2)c2ccccc21` [Compound W-212393], for which the inhibitory constant (Ki) (as a rule, the equilibrium dissociation constant of an inhibitor or competing ligand from its target) in experiment [1] amounted to 0.7 nM. Moreover, the “agonist classification at ORL-1 from Emax” value in experiment [2] (from ORL-1 Emax results in Table 21) is recorded as “full agonist”. Moreover, the EC50 (commonly the concentration at which the effect is half-maximal) in experiment [2] (read-out: GTPγS ORL-1 EC50 [Mean ± Standard Error of the Mean], determined according to the procedures of U.S. Pat. No. 8,476,271) is 2.04 nM.
